Fold reduced affinity against wild-type UVR8 data for one substance are collected here from doi:10.1101/568618 (bioRxiv, 2019).

This assay addresses T1, Arabidopsis COP1^349-675 WD40 domain (Arabidopsis, UniProt P43254 349-675).
T1 sequence: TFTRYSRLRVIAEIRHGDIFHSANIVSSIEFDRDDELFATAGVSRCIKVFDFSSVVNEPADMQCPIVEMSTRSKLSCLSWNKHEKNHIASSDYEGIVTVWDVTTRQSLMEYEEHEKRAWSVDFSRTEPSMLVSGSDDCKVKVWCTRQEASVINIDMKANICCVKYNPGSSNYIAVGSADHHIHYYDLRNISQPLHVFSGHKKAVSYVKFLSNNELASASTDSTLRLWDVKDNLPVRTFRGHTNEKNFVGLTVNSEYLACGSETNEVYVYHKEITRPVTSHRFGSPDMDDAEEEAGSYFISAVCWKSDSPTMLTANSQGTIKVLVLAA
Description: grating-coupled interferometry.

Consider “full-length UVR8^ValPro/AlaAla (from UniProt Q9FN03 1-440) (natural protein)”, for which the fold reduced affinity against wild-type UVR8 came out at 20 fold.
